Legend:
Dihydrofolate reductase [1] = biological target: T1, Dihydrofolate reductase (Mus musculus, UniProt P00375)
T1 sequence (P00375 whole entry): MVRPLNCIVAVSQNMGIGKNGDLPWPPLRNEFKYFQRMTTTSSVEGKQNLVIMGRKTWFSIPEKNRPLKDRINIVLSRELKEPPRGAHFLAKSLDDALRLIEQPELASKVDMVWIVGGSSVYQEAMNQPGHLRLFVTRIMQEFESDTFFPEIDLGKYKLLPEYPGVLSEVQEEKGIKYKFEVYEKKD

Dihydrofolate reductase [2] = biological target: T1, Dihydrofolate reductase; experiment: Inhibition of mouse DHFR in presence of saturating levels of NADPH and DHFA

Row | Structure (SMILES) | Ki (Dihydrofolate reductase [1]) [nM] | IC50 (Dihydrofolate reductase [2]) [nM]
1 | COc1ccccc1/C(C)=C\c1coc2nc(N)nc(N)c12 | 62 | 
2 | COc1ccccc1/C(C)=C/c1coc2nc(N)nc(N)c12 | 160 | 14500
